## CycPeptMPDB entries from one study

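The data file gives no further conditions (lipid, pH, time, direction or concentration), and values from different papers need not be comparable. The list need not hold all peptides of the study. Peptides that the database sets to -10, its floor, are left out.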

PAMPA measures passive passage through an artificial lipid membrane.
Values are log10 P with P in cm/s, so -5 is more permeable than -7.

CC(C)C[C@@H]1C(=O)N2CCC[C@@H]2C(=O)N[C@H](CC(C)C)C(=O)N[C@@H](Cc2ccccc2)C(=O)N2CCC[C@@H]2C(=O)N(C)[C@@H](C)C(=O)N(C)[C@@H](CC(C)C)C(=O)N1C has PAMPA -6.40 (log10 cm/s). For CCCN1CC(=O)N(C)[C@@H](CC(C)C)C(=O)N(C)[C@H](CC(C)C)C(=O)N2CCC[C@H]2C(=O)N(C)[C@H](CC(C)C)C(=O)N[C@@H](Cc2ccccc2)C1=O the data give PAMPA -4.77 (log10 cm/s). CC(C)C[C@@H]1C(=O)N[C@@H](Cc2ccccc2)C(=O)N2CCC[C@@H]2C(=O)N(C)[C@@H](C)C(=O)N(C)[C@H](CC(C)C)C(=O)N(C)[C@@H](CC(C)C)C(=O)N2CCC[C@@H]2C(=O)N1C has PAMPA -5.16 (log10 cm/s). CC(C)C[C@@H]1NC(=O)[C@@H]2CCCN2C(=O)CN(Cc2ccccc2)C(=O)[C@@H](CC(C)C)NC(=O)[C@@H](C)N(C)C(=O)[C@H]2CCCN2C(=O)[C@H](Cc2ccccc2)NC1=O has PAMPA -6.70 (log10 cm/s). Listed for CC(C)C[C@@H]1NC(=O)[C@@H](CC(C)C)N(C)C(=O)[C@@H](C)NC(=O)[C@H](Cc2ccccc2)NC(=O)[C@@H](CC(C)C)N(C)C(=O)[C@@H]2CCCN2C1=O: PAMPA -5.30 (log10 cm/s). Listed for CC(C)C[C@@H]1NC(=O)[C@H]2CCCN2C(=O)[C@H](CC(C)C)NC(=O)[C@H](CC(C)C)NC(=O)[C@H](C)N(C)C(=O)[C@H](Cc2ccccc2)NC1=O: PAMPA -6.68 (log10 cm/s). The entry for CC(C)C[C@@H]1NC(=O)[C@@H]2CCCN2C(=O)[C@@H](CC(C)C)NC(=O)[C@H](CC(C)C)N(C)C(=O)[C@H](C)N(C)C(=O)[C@H]2CCCN2C(=O)[C@H](Cc2ccccc2)NC1=O lists PAMPA -5.78 (log10 cm/s).

CC(C)C[C@@H]1NC(=O)[C@H](C)N(C)C(=O)[C@@H]2CCCN2C(=O)[C@H](Cc2ccccc2)NC(=O)[C@H](CC(C)C)N(C)C(=O)[C@H]2CCCN2C(=O)[C@@H](CC(C)C)N(C)C1=O is reported with PAMPA -6.10 (log10 cm/s). Listed for CC(C)C[C@@H]1C(=O)N(Cc2ccccc2)CC(=O)N2CCC[C@@H]2C(=O)N[C@H](CC(C)C)C(=O)N[C@@H](Cc2ccccc2)C(=O)N2CCC[C@H]2C(=O)N[C@@H](C)C(=O)N1C: PAMPA -5.95 (log10 cm/s). CC(C)C[C@@H]1NC(=O)[C@@H](C)N(C)C(=O)[C@H](Cc2ccccc2)NC(=O)[C@@H](CC(C)C)NC(=O)[C@@H]2CCCN2C(=O)[C@H](CC(C)C)NC1=O is reported with PAMPA -6.36 (log10 cm/s). The entry for CCCN1CC(=O)N(Cc2ccccc2)CC(=O)N(C)[C@H](CC(C)C)C(=O)N2CCC[C@@H]2C(=O)N(C)[C@@H](CC(C)C)C(=O)N[C@@H](Cc2ccccc2)C(=O)N2CCC[C@@H]2C1=O lists PAMPA -5.73 (log10 cm/s). CCCN1CC(=O)N[C@@H](CC(C)C)C(=O)N[C@@H](CC(C)C)C(=O)N2CCC[C@H]2C(=O)N(C)[C@@H](CC(C)C)C(=O)N[C@@H](Cc2ccccc2)C(=O)N2CCC[C@@H]2C1=O is reported with PAMPA -5.68 (log10 cm/s). CC(C)C[C@@H]1C(=O)N2CCC[C@H]2C(=O)N(C)[C@@H](CC(C)C)C(=O)N[C@@H](Cc2ccccc2)C(=O)N2CCC[C@@H]2C(=O)N(C)[C@@H](C)C(=O)N(C)[C@H](CC(C)C)C(=O)N1C has PAMPA -4.95 (log10 cm/s). The entry for CC(C)C[C@@H]1C(=O)N[C@@H](Cc2ccccc2)C(=O)N[C@@H](Cc2ccccc2)CC(=O)N(C)[C@@H](CC(C)C)C(=O)N(Cc2ccccc2)CC(=O)N2CCC[C@H]2C(=O)N1C lists PAMPA -5.33 (log10 cm/s).

For CC(C)C[C@@H]1NC(=O)[C@@H]2CCCN2C(=O)[C@@H](CC(C)C)NC(=O)[C@@H](CC(C)C)NC(=O)[C@H](C)NC(=O)[C@H](Cc2ccccc2)NC1=O the data give PAMPA -6.45 (log10 cm/s). CC(C)C[C@@H]1C(=O)N[C@@H](Cc2ccccc2)CC(=O)N2CCC[C@H]2C(=O)N(C)[C@H](CC(C)C)C(=O)N[C@@H](Cc2ccccc2)C(=O)N2CCC[C@@H]2C(=O)N[C@H](C)C(=O)N1C has PAMPA -5.64 (log10 cm/s). The entry for CC(C)C[C@@H]1C(=O)N[C@@H](Cc2ccccc2)C(=O)N2CCC[C@@H]2C(=O)N[C@H](C)C(=O)N(C)[C@@H](CC(C)C)C(=O)N(C)[C@@H](CC(C)C)C(=O)N2CCC[C@H]2C(=O)N1C lists PAMPA -5.50 (log10 cm/s). CC(C)C[C@@H]1NC(=O)[C@H](CC(C)C)N(C)C(=O)[C@@H](C)NC(=O)[C@@H]2CCCN2C(=O)[C@H](Cc2ccccc2)NC(=O)CN(Cc2ccccc2)C(=O)[C@@H]2CCCN2C1=O has PAMPA -5.87 (log10 cm/s).

Extract of 2 entries:

The entry for CCCN1CC(=O)N(Cc2ccccc2)CC(=O)N(C)[C@H](CC(C)C)C(=O)N2CCC[C@@H]2C(=O)N(C)[C@@H](CC(C)C)C(=O)N[C@@H](Cc2ccccc2)C(=O)N2CCC[C@@H]2C1=O lists PAMPA -5.73 (log10 cm/s).
The entry for CC(C)C[C@@H]1C(=O)N[C@@H](Cc2ccccc2)C(=O)N2CCC[C@@H]2C(=O)N(C)[C@@H](C)C(=O)N(C)[C@H](CC(C)C)C(=O)N(C)[C@@H](CC(C)C)C(=O)N2CCC[C@@H]2C(=O)N1C lists PAMPA -5.16 (log10 cm/s).

Source: CycPeptMPDB (Li et al. 2023), which took these values from Townsend et al. 2020, doi:10.26434/chemrxiv.13335941.v1.